Values quoted from earlier work in US7196190B2, “Methods and compositions for screening for angiogenesis modulating compounds” (Xenogen Corporation, priority 1999, dated 2007).

Settings: in vivo; cited from earlier work

VEGF
half life in circulation: 3 min
